These are literature values, as cited in patent US20140037721A1, “Pharmaceutical Composition” (Alpharma pharmaceuticals LLC, priority 2007, published 2014).

The data set relates to opioid receptors. To be noted: One mg intravenously; cited from earlier work.

As to `C=CCN1CC[C@]23c4c5ccc(O)c4O[C@H]2C(=O)CC[C@@]3(O)[C@H]1C5` [naloxone], the “blockade of the effect of 25 mg of heroin” value is reported as “block completely”.
